# Compounds with a hit are over-represented: about 13% of the library has one in this group of screens.
# G9a inh – G9a (human) methyltransferase inhibition | Q96KQ7 | G9a H3K9 monomethylation, AlphaScreen, 2 h | Potency, µM (highest dose often 102 µM), for the others: top-dose activity, negative = inhibition, hits mostly inhibitors | 350,000 compounds, 8.8% hits | AID 504332; further: potency means the concentration at half of the fitted maximal effect; on the % scale 0 is the no-effect control and ±100 the full control effect; nearly all actives have a fitted effect of over 75% in size
#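 Enzyme 20 nM + cpd, 15 min RT; add b-H3K9 pep 500 nM / SAM 20 uM; 2 h RT; anti-H3K9me1 Ab 0.5 ug/mL + SA donor / anti-rabbit acceptor beads 20 ug/mL each, 10 min; AlphaScreen read.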
# JMJD2E inh – inhibitors of human JMJD2E histone demethylase. B2RXH2. JMJD2E catalytic domain, FDH-coupled NADH fluorescence (FDH is formaldehyde dehydrogenase). Potency, µM (titrated, usually from 57.1 µM), for inactives: top-dose activity change, negative = inhibition, hits mostly inhibitors. 230,000 compounds, 1.6% hits; active means well fitted inhibition curve with a large enough effect, not every such curve was filed as active; inconclusive means small, poorly fitted or top-dose-only effect, or another doubt; inactive means no such curve, though single readings can be large or run the other way;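 further: potency means the concentration at half of the fitted maximal effect; 0% = wells with enzyme and -100% = buffer wells without enzyme; nearly all actives have a fitted effect of over 50% in size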
# miR-21 FLuc – miR-21 reporter, rising signal. HeLa miR-21 FLuc reporter, luciferase, 48 h. Potency, µM (highest dose often 38.3 µM), for the others: at the highest dose reporter change, positive = more light. 340,000 tested, under 10 active. AID 2288; active = well fitted rising curve with a large enough effect; inconclusive = small, poorly fitted or top-dose-only effect; inactive = no such curve, though single readings can be large or run the other way;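 further: % of control where 0% means no effect; miR-21 action dims this reporter so a rising signal means less miR-21 action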
#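 Using DMEM plus 10% FBS, HeLa miR-21-FLuc cells are incubated with test compounds (final up to about 40uM) for 48 hours; firefly luciferase signal is then imaged following reagent-mediated lysis.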
# ALDH1A1 block – blocks purified human ALDH1A1 activity; Potency, µM (doses to about 75.3 µM), without a hit: at the top dose activity, negative = inhibition, most hits filed as inhibitors; AID 1030; 220,000 compounds, 7.3% hits; Purified ALDH1A1, NADH fluorescence, propionaldehyde substrate; P00352; active means well fitted inhibition curve with a large enough effect, not every such curve was filed as active; inconclusive means small, poorly fitted or top-dose-only effect, or another doubt; inactive means no such curve, though single readings can be large or run the other way;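 further: potency means the concentration at half of the fitted maximal effect; plate controls were no enzyme wells and a reference inhibitor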
# Lamin A splicing – LMNA splicing modulation. HeLa LMNA splicing GFP/RFP minigene ratio, 48 h. Potency, µM (highest dose often 46.1 µM), without a hit: at the highest dose ratio change, negative = inhibition, usual class: inhibitors. 200,000 compounds, 0.01% hits; active means well fitted inhibition curve with a large enough effect in the signal ratio, with a control signal flat, not every such curve was filed as active; inconclusive means small, poorly fitted or top-dose-only effect, or effect the other way, or a change in a side signal; the % refers to the signal ratio; further: potency means the concentration at half of the fitted maximal effect; on the % scale 0 is the no-effect control and ±100 the full control effect
#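 S3 HeLa stable clones carrying a lamin A-EGFP splicing minigene plus DsRed2 were seeded at 600 cells/well in Opti-MEM with 2% FBS, pin-dosed and incubated 48 h at 37°C. Acumen cytometry (488 nm) gave the GFP/RFP total-intensity ratio.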
# Sfp inh – inhibitors of Bacillus subtilis Sfp phosphopantetheinyl transferase; Q9F4F7; Biochemical Sfp PPTase activity, qHTS; Potency, µM, inactives show max response, negative = inhibition, usual class: inhibitors; 310,000 tested, 3.5% active; active = well fitted inhibition curve with a large enough effect; inconclusive = small, poorly fitted or top-dose-only effect, or another doubt; inactive = no such curve, though single readings can be large or run the other way;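 note: the enzyme is Sfp with the accession as filed and its product quenches rhodamine fluorescence; potency is the fitted concentration of half-maximal effect; 0% = enzyme reaction without inhibitor and -100% = no enzyme wells; top concentration of the series not given in the record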
#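 Reaction rates are the 30-min fluorescence difference (ex 525, em 598 nm) in wells containing 15 nM Sfp, 5 uM rhodamine-CoA and 12.5 uM BHQ-2-YbbR at pH 7.6 with 10 mM MgCl2.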
# Active calls of the source: *; ? = inconclusive; · = no result given; [ ] = remark or other dose. Unless noted, the call rests on the fitted dose curve; in most records, active means well fitted curve in the direction sought with a large enough effect; inconclusive means small, poorly fitted or top-dose-only effect, or another doubt; inactive means no such curve, though single readings can be large; an effect the other way counts as inactive or inconclusive.
# Results follow in this order: G9a inh | JMJD2E inh | miR-21 FLuc | ALDH1A1 block | Lamin A splicing | Sfp inh
1) O=C(Cc1c[nH]c2ccccc12)Nc1ccc(N2CCOCC2)cc1
    22µM* | 9% | -9% | ? | -21%[46 µM] | -7%
2) O=C(CSc1nnc2c(n1)[nH]c1ccc(F)cc12)N1CCOCC1
    -2% | -2% | -6% | 7% | -8%[46 µM] | 7%
3) Brc1ccc2[nH]c3nc(SCCN4CCOCC4)nnc3c2c1
    40µM* | -1% | -19% | ? | -10%[46 µM] | 4%
4) Cc1ccc(CN2CCc3nc(N4CCN(c5ccccc5F)CC4)ncc3C2)s1
    -5%[59 µM] | · | -4% | · | 14%[46 µM] | ·
5) O=C(CSc1nnc2c(n1)[nH]c1ccccc12)Nc1ccc(N2CCOCC2)cc1
    · | -24% | 2% | 22µM* | ? | 7.9µM*
6) O=C(CSc1nnc2c(n1)[nH]c1ccccc12)Nc1ccc2c(c1)OCO2
    1.8µM* | 2% | -18% | ? | ? | 45µM*
7) Cc1ccc(NC(=O)CSc2nnc3c(n2)[nH]c2ccccc23)cc1
    20% | · | 0% | · | · | 14%
8) Cc1ccc2oc(-c3ccccc3)c(O)c(=O)c2c1
    · | 14µM* | · | -1% | · | 1%
9) O=C(CCNC(=O)c1ccc([N+](=O)[O-])cc1)NCc1ccccc1
    -10% | · | · | · | · | ·
10) COC(=O)CSc1nc2sc3c(c2c(=O)n1-c1ccccc1C)CC(C)(C)OC3
    -1%[59 µM] | · | -3% | · | · | ·
11) COC(=O)c1ccc(OCC2c3cc(OC)c(OC)cc3CCN2C(=O)c2ccco2)cc1 (stereo not given)
    50µM* | 4% | 6% | -2% | -17% | 6%
12) COC(=O)c1ccc(OCC2c3cc(OC)c(OC)cc3CCN2C(=O)c2ccc(OC)cc2)cc1 (stereo not given)
    -47%[59 µM] | · | 0% | · | -13%[46 µM] | ·
13) CC(=O)Nc1ccccc1C(=O)C(=O)Nc1ccc(F)c(Cl)c1
    21% | · | -50% | · | · | 10%
14) Cc1ccc2c(c1)c1c(n2CC(O)CNC2CCCCC2)CCCC1 (stereo not given)
    40µM* | -28% | ? | ? | · | -12%
15) Cc1ccc2c(c1)c1c(n2CC(O)CNC(CO)(CO)CO)CCCC1 (stereo not given)
    50µM* | ? | -5% | -1% | 5% | 19%
16) Cc1ccc2c(c1)c1c(n2CC(O)CN2CCCCC2C)CCCC1 (stereo not given)
    45µM* | ? | -18% | · | · | 3%
17) Cc1ccc2c(c1)c1c(n2CC(O)CN2CCOCC2)CCCC1 (stereo not given)
    ? | · | -5% | · | · | -3%
18) Cc1ccc2c(c1)c(C)c(C)n2CC(O)CN1CCCCC1C (stereo not given)
    ? | ? | -9% | 13% | -1% | 3%
19) Cc1nn(Cc2n[nH]c(=S)n2Cc2ccccc2)c(C)c1Cl
    2.5µM* | -10% | -3% | -12% | 6% | 2%
20) Cc1cc(C)n(Cc2n[nH]c(=S)n2Cc2ccccc2)n1
    16µM* | 3% | -5% | 2% | 9% | -6%
21) COc1ccc(NC(=O)c2c(C)nn(Cc3ccccc3)c2C)cc1S(=O)(=O)N(C)C
    6% | · | 4% | · | · | 20%
22) O=C(Nc1nccs1)c1cc(-c2ccco2)nc2ccccc12
    ? | ? | 5% | ? | ? | -79%
23) O=C(c1ccco1)N1CCN(C(=O)c2cc(-c3ccccn3)nc3ccccc23)CC1
    ? | -1% | -2% | 3.5µM* | 6% | -6%
24) O=C(OCC(=O)N1CCN(C(=O)c2ccco2)CC1)c1sc2cc(F)ccc2c1Cl
    -46%[12.7 µM] | 2% | 5% | 28µM* | -5% | -19%
25) O=C(NC1CC1)c1cc(-c2ccco2)nc2ccccc12
    10µM* | ? | 1% | · | · | 45µM*
26) Cc1ccc(C)c(-c2cc(C(=O)NNC(=S)NCC(C)C)c3ccccc3n2)c1
    10µM* | -11% | 1% | ? | -7% | 7%
27) Cc1ccc(CNC(=O)COc2ccc(S(=O)(=O)N3CCOCC3)cc2)cc1
    1% | · | · | · | · | ·
28) CCn1c(SC)nc2c([nH]c3ccccc32)c1=O
    4%[59 µM] | · | 0% | · | ? | ·
29) Cc1ccc(Cl)cc1N1CCN(C(=O)Cn2cnc3sc(C)c(S(=O)(=O)N4CCC(C)CC4)c3c2=O)CC1
    -3%[59 µM] | · | ? | · | · | ·
30) O=C(NC1CCCCCC1)c1cc(-c2ccccn2)nc2ccccc12
    -12% | -2% | 6% | ? | ? | -5%
31) Cc1ccc(Nc2cc(C(=O)NC3CCCC3)c3ccccc3n2)c(C)c1
    -4%[59 µM] | · | 5% | · | · | ·
32) O=C(c1cc(-c2ccco2)nc2ccccc12)N1CCN(c2ccc(F)cc2)CC1
    ? | 5% | -2% | ? | ? | 25µM*
33) Cc1ccc(-c2cc(C(=O)N3CCN(c4ccccc4)CC3)c3ccccc3n2)cc1C
    ? | · | 25% | · | ? | ·
34) O=C(O)c1cc(-c2cc(C(=O)O)c3ccccc3n2)nc2ccccc12
    8% | · | 1% | · | · | 4%
35) O=C(O)c1cc(-c2ccco2)nc2ccccc12
    28µM* | ? | -4% | ? | 3% | 35µM*
36) Cc1ccc(C)c(-c2cc(C(=O)NC3CC3)c3ccccc3n2)c1
    45µM* | · | 0% | · | · | -5%
37) O=C(NC1CCCCC1)c1cc(-c2ccccn2)nc2ccccc12
    50µM* | 0% | 3% | -5% | 11%[46 µM] | 24%
38) CC1CC(C)CN(CC(O)COCc2ccccc2F)C1 (stereo not given)
    5% | · | -3% | · | · | 9%
39) Cn1ccc(-c2cc(C(=O)O)c3ccccc3n2)n1
    50µM* | ? | 0% | 5% | 2%[46 µM] | -12%
40) O=C(OCC(=O)N1CCN(C(=O)c2ccco2)CC1)c1cc(-c2ccco2)nc2ccccc12
    · | ? | -1% | ? | 13% | -103%
41) O=C(OCC(=O)N1CCN(C(=O)c2ccco2)CC1)c1cc(-c2ccc(Cl)c(Cl)c2Cl)nc2ccccc12
    79µM* | ? | -1% | ? | 4% | -17%
42) Cc1cccc(NC(=O)CSc2nc3c(oc4ccccc43)c(=O)n2Cc2ccco2)c1
    0%[59 µM] | · | 3% | · | · | ·
43) Cc1ccc(CCNC(=O)C2COc3ccccc3C2)cc1 (stereo not given)
    12%[59 µM] | · | -18% | · | -1%[46 µM] | ·
44) CCCN(CCC)C(=O)c1nn(C)c2c1CSc1ccc(C)cc1-2
    -18%[59 µM] | · | -2% | · | ? | ·
45) CCOC(=O)CNc1nnc(SCC(=O)OCC)[nH]c1=O
    22µM* | 5% | -4% | 0% | 2% | -28%
46) CCSc1nc2sc3c(c2c(=O)[nH]1)CCc1ccccc1-3
    50µM* | ? | -4% | -7% | -13% | -10%
47) C=CCSc1nc2sc3c(c2c(=O)n1CC=C)CCc1ccccc1-3
    6%[59 µM] | -19% | -6% | -5% | -15% | 45µM*
48) C=CCn1c(SCCC)nc2sc3c(c2c1=O)CCc1ccccc1-3
    ? | -3% | -7% | -6% | ? | -24%

# Structures above that bear a hit mark in JMJD2E inh:
nr	Molecule	G9a inh	JMJD2E inh	miR-21 FLuc	ALDH1A1 block	Sfp inh
8	Cc1ccc2oc(-c3ccccc3)c(O)c(=O)c2c1	·	14µM*	·	-1%	1%

# Limited to G9a inh and JMJD2E inh (six entries from above):
item | smiles | G9a inh | JMJD2E inh
15 | Cc1ccc2c(c1)c1c(n2CC(O)CNC(CO)(CO)CO)CCCC1 (stereo not given) | 50µM* | ?
34 | O=C(O)c1cc(-c2cc(C(=O)O)c3ccccc3n2)nc2ccccc12 | 8% | ·
9 | O=C(CCNC(=O)c1ccc([N+](=O)[O-])cc1)NCc1ccccc1 | -10% | ·
31 | Cc1ccc(Nc2cc(C(=O)NC3CCCC3)c3ccccc3n2)c(C)c1 | -4%[59 µM] | ·
8 | Cc1ccc2oc(-c3ccccc3)c(O)c(=O)c2c1 | · | 14µM*
17 | Cc1ccc2c(c1)c1c(n2CC(O)CN2CCOCC2)CCCC1 (stereo not given) | ? | ·

# Bioassay records from PubChem BioAssay.
